Measured values from paper PMC13206458, “A Synergistic Inhibitor Development Strategy Against Human UDP‐Galactose‐4‐Epimerase” (Angewandte Chemie (International Ed. in English), 2026).

How the values were obtained:
GalE [1] = molecular target: T1, GalE (Homo sapiens, UniProt Q14376); conditions: no pre-incubation period
T1 sequence (Q14376 1-348): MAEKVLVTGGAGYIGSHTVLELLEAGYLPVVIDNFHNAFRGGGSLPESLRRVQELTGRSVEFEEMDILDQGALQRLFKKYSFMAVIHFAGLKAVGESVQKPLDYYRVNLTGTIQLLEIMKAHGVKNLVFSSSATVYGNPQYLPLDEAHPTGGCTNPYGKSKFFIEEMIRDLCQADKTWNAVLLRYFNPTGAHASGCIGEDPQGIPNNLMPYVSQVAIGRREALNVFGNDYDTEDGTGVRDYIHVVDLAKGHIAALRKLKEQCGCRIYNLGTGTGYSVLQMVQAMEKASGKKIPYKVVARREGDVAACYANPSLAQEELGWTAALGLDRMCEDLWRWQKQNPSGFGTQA

GalE [2] = molecular target: T1, GalE; assay: Covalent fragment kinetics assay by intact-protein LCMS; format: binding; design: His tag (3C-cleavable; concluded from HisTrap purification and 3C cleavage) (cleaved yes); made in house; host or cells: Sf21 insect cells (baculovirus, described before) or E. coli BL21 (DE3); conditions: 100 to 1.56 µM fragment, 0.5 µM GalE
GalE [3] = molecular target: T1, GalE; assay: Covalent fragment site identification by tryptic digest LCMS/MS; design: His tag (3C-cleavable; concluded from HisTrap purification and 3C cleavage) (cleaved yes); made in house; host or cells: Sf21 insect cells (baculovirus, described before) or E. coli BL21 (DE3); conditions: 200-fold excess of compound
From the text: • Options: Optimisation of hydrogens, keep tight waters (those that make 3 or more H-bonds), optimise His, Pro, Asn, Gln, and Cys side chains.
• Options: Optimisation of formal and partial charges, protonation states (at pH 7.5) and hydrogen placement.
• Identification of the binding pocket and building of receptor maps around X0213 using the ICM virtual screening function.
• Docking of libraries from SDFiles using the ICM virtual ligand screening function, selecting a thoroughness score of 3.
• All other docking parameters kept as default, and no additional triaging was […]
WBC01 and WBC02 Covalent Fragment Site Identification Mass Spectrometry Recombinant human GalE (10 µM GalE, 25 mM HEPES, 50 mM NaCl) was first incubated with either WBC01 or WBC02 (25, 50, or 100 µM) or matched 1% (V/V) DMSO control for 24 hours at room temperature. […]
bottom plate from a 10 mM source in DMSO. […] The plate was sealed, centrifuged (1 min, 1000 rpm), incubated at 20 °C for 6 h, and 15 µL aliquots were subsequently removed and analyzed by intact protein LC-MS to confirm modification. […]

## O=C(NCc1cccc(S(=O)(=O)F)c1)Nc1cc(C2CCC2)on1 [WBC10]
GalE [1]
  GalE inhibition without pre-incubation: little GalE inhibition
GalE [2]
  kinact/KI: 38.2 M⁻¹ s⁻¹
GalE [3]
  residue modified: only Tyr211
